Source: patent US7846944B2, “Pyrazolo-pyridinone compounds and methods of use thereof” (Amgen Inc., priority 2007, dated 2010)
Like-named read-outs stand apart in the source and are kept apart here.

Amino acid sequences for entries named in this document (tags omitted).
UniProt Q16539, whole entry: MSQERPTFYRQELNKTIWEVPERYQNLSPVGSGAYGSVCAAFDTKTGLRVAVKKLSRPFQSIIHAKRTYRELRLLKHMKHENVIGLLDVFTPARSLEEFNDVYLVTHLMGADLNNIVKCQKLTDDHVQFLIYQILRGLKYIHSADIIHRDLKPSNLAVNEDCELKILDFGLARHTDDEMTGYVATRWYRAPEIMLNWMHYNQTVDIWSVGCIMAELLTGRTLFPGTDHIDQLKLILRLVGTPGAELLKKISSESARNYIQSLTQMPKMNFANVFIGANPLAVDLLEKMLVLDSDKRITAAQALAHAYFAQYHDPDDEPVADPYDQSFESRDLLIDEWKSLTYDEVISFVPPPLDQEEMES

Columns and labels:
[1] = system: production of IL-1β, IL-6, and TNF-α by PBMC activated with LPS; assay: Lipopolysaccharide-activated PBMC cytokine production assay; type: cell-based; details: 18 h, read-out: IC50 in the whole blood PMBC assay
Protocol: Lipopolysaccharide-Activated PBMC Cytokine Production Assay
Test compounds were evaluated in vitro for the ability to inhibit the production of IL-1β, IL-6, and TNF-α by PBMC activated with bacterial lipopolysaccharide (LPS). Fresh leukocytes were obtained from a local blood bank, and peripheral blood mononuclear cells (PBMCs) were isolated by density gradient centrifugation on Ficol-Paque Plus (Pharmacia).
Preparation of Test Compound Stock Solutions
All reagents were prepared in RPMI 1640+10% v/v human AB serum+1×Pens/Strep/Glu (assay medium). Test compounds were dissolved in 100% DMSO and serially diluted in 96-well polypropylene round bottom micro titer plates (drug plate). Serial dilutions were then diluted 1:250 into assay medium to a 4× working concentration. […]
LPS was prepared to a 4× concentration in assay medium. […] After 18 hours culture supernatants were removed and IL-1β, IL-6, and TNF-α presence in the supernatants was quantified using MSD ECL based technology.
Cytokine Measurements 20 μL of culture supernatant were added to MSD plates, and incubated for one hour at room temperature. 20 μL of detection antibody diluted in antibody diluent (1 μg/mL), and 110 μL of 2× Read Buffer P was added, and incubated for one hour at RT. Electrochemiluminescence was measured using the SECTOR HTS Imager (MSD, Gaithersburg, Md.). […]

[2] = system: Collagen-Induced Arthritis (CIA) Model in Rats; assay: Collagen-induced arthritis (CIA) model in rats; type: in vivo; details: Rattus norvegicus, 168 h, read-out: ED50 in the rat CIA model
Protocol: Collagen-Induced Arthritis (CIA) Model in Rats
Porcine type II collagen (10 mg) was dissolved in 0.1N acetic acid (5 mL) two days prior to use on a rotating plate in the refrigerator. Subsequently, collagen was emulsified 1:1 with Freund's incomplete adjuvant using an emulsification needle and glass syringes yielding a final concentration of 1 mg/mL.
Disease was induced in each animal by intradermal injection of emulsified collagen in IFA at 10 different sites (100 μL per site) over the back. […] At onset (defined as Day 0), rats were randomized to treatment groups and therapy was initiated with drug or vehicle control as noted in table above. Rats were treated for 7 days and were sacrificed on Day 8.

[3] = target: recombinant human p38α (Homo sapiens, UniProt Q16539); assay: Purified and activated recombinant human p38α HTRF kinase assay; type: biochemical
Protocol: Purified and Activated Recombinant Human p38α Assay
• Kinase Reaction Buffer: Kinase reaction buffer for p38α HTRF assays consists of 50 mM Tris-pH 7.5, 5 mM MgCl2, 0.1 mg/mL BSA, 100 μM Na3VO4 and 0.5 mM DTT. • HTRF Detection Buffer: HTRF detection buffer contains 100 mM HEPES-pH 7.5, 100 mM NaCl, 0.1% BSA, 0.05% Tween-20, and 10 mM EDTA. • Serial Dilution of Compounds: Compounds were dissolved in 100% DMSO and serially diluted (3 fold, 10 point) in a polypropylene 96-well microtiter plate (drug plate). The final starting concentration of compounds in the p38α enzymatic assays was 1 μM. […] In the absence of substrate, the background was measured as LO control. […] After 60 minutes incubation at room temperature, the assay plate was read in a Discovery Plate Reader. The wells were excited with coherent 320 nm light and the ratio of delayed ([…] post excitation) emissions at […] (native europium fluorescence) and 665 nm (europium fluorescence transferred to allophycocyanin—an index of substrate phosphorylation) was determined (Park et al, 1999). • Data Analysis: The proportion of substrate phosphorylated in the kinase reaction in the presence of compound compared with that phosphorylated in the presence of DMSO vehicle alone (HI control) was calculated using the formula: % control (POC)=(compound−average LO)/(average HI−average LO)*100. […]

[4] = system: TNF-α secretion by LPS-treated THP1 cells; assay: Lipopolysaccharide-activated THP1 cell TNF production assay; type: cell-based; details: Homo sapiens, THP-1, 3 h, read-out: IC50 in the THP-1 cellular TNF production assay
Protocol: Lipopolysaccharide-Activated THP1 Cell TNF Production Assay
THP1 cells were resuspended in fresh THP1 media (RPMI 1640, 10% heat-inactivated FBS, 1×PGS, 1×NEAA, plus 30 μM βME) at a concentration of 1.5×10^6 cells per mL. One hundred microliters of cells per well were plated in a polystyrene 96-well tissue culture plate. 1.5 micrograms per mL of bacterial LPS was prepared in THP1 media and transferred to the first 11 columns of a 96-well polypropylene plate. Column 12 contained only THP1 media for the LO control. Compounds were dissolved in 100% DMSO and serially diluted 3 fold in a polypropylene 96-well microtiter plate (drug plate). Columns 6 and 12 were reserved as controls (HI controls and LO controls respectively) and contained only DMSO. […] Fifty microliters of conditioned media was transferred to a 96-well MULTI-ARRAY™ 96-well small spot plate—custom coated with MAB610 containing 100 μL of 2× Read Buffer P supplemented with 0.34 nM AF210NA polyclonal Ab labeled with ruthenium (MSD-Sulfo-TAG™-NHS ester). After an overnight incubation at room temperature with shaking, the reaction was read on the Sector Imager™ 6000. […] The amount of secreted TNF-α in the presence of AMG compounds compared with that in the presence of DMSO vehicle alone (HI control) was calculated using the formula: % control (POC)=(cpd−average LO)/(average HI−averageLO)*100. […]

SMILES: Cn1c(=O)c(-c2cc(C(=O)NC3CC3)ccc2Cl)cc2cnn(-c3c(F)cccc3F)c21 [Example 20, 4-chloro-N-cyclopropyl-3-(1-(2,6-difluorophenyl)-7-methyl-6-oxo-6,7-dihydro-1H-pyrazolo[3,4-b]pyridin-5-yl)benzamide]
- IC50 [1]: ≤ 125 nM
- ED50 [2]: 0.1 mg/kg
- IC50 [3]: ≤ 100 nM
- IC50 ([3]; read-out: p38a IC50): 2.5 nM
- IC50 [4]: ≤ 175 nM
